Values joined by “and” are separate entries in the source; they are usually repeats but may differ in a detail not shown here. Equal values may be shown once. Only a part of the results on these compounds is given; other tests are left out.

The chains behind the UniProt entries cited, without tags or fusion partners.
UniProt Q12809, whole entry: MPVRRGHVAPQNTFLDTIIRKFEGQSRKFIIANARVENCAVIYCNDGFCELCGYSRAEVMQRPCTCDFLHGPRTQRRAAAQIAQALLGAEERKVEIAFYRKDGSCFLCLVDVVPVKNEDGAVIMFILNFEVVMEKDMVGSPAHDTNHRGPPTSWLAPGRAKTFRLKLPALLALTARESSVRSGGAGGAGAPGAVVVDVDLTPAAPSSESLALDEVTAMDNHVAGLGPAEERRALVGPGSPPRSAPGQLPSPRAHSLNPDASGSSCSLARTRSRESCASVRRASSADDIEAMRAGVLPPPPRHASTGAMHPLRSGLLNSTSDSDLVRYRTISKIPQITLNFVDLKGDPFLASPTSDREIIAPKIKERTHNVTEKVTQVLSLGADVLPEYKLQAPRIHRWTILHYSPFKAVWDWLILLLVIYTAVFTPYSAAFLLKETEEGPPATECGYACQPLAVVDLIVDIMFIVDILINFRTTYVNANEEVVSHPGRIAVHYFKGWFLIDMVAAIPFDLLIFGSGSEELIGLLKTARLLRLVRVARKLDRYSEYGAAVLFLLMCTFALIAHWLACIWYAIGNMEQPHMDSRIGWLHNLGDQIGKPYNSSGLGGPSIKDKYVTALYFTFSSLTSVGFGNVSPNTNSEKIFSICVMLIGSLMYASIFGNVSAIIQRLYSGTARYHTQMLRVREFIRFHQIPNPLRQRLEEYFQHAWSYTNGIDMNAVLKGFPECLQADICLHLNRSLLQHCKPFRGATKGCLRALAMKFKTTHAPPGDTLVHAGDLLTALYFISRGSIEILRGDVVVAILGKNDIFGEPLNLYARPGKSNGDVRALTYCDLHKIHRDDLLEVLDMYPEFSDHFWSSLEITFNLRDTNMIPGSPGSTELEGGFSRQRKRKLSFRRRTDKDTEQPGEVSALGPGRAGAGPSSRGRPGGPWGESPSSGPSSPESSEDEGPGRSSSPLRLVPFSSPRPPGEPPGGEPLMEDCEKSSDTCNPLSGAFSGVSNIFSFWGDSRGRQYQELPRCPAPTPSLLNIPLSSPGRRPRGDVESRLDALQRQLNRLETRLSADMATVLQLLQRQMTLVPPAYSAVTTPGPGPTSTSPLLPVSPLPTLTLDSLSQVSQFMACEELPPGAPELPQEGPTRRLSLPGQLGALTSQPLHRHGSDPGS
UniProt P10635, whole entry: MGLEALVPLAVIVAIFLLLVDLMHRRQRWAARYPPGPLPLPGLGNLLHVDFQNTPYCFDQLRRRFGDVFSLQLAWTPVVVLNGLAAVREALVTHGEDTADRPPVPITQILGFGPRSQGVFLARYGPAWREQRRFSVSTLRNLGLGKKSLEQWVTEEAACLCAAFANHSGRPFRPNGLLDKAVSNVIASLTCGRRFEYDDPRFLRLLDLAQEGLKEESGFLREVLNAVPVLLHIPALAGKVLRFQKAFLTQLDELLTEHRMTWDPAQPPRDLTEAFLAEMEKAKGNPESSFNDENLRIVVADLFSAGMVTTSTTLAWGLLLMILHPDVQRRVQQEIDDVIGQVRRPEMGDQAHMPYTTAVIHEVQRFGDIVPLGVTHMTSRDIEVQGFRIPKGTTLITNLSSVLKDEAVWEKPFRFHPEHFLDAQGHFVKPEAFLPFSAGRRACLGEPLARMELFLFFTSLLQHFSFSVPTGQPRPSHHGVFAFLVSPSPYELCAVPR
UniProt P34969, whole entry: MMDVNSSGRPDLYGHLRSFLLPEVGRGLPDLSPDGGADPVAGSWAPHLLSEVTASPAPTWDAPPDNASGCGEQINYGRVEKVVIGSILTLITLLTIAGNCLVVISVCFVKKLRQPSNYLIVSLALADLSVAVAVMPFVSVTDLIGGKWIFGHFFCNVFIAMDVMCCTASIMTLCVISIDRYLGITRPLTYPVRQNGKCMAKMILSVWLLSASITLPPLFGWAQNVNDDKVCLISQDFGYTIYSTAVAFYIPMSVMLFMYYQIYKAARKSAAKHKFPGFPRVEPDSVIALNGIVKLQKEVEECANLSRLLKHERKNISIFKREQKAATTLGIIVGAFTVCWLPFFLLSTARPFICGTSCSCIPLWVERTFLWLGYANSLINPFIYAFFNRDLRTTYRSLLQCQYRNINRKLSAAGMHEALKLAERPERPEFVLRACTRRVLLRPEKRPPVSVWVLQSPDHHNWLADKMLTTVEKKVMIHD

Data set [1] concerns Liver microsomes. The data set can be described thus: Half life in human liver microsomes. It counts as ADME, Microsome.
Data set [2] deals with Voltage-gated inwardly rectifying potassium channel KCNH2 (Homo sapiens, UniProt Q12809). Kind of data set: Displacement of [3H]dofetilide from human ERG.
Data set [3] is described as follows: Inhibition of tetrodotoxin-sensitive sodium channel.
The target of another data set is Cytochrome P450 2D6 (Homo sapiens, UniProt P10635). Kind of data set: Inhibition of CYP2D6. It counts as ADME.
The test system of data set [4] is Liver microsomes. The data set can be described thus: Metabolic stability in human liver microsomes in presence of recombinant CYP2C19.
Data set [5] relates to Caco-2. Kind of data set: Apparent permeability from basolateral to apical side of human Caco-2 cells.
Data set [6] is described as follows: Dissociation constant, pKa of the compound.
Data set [7] deals with Liver microsomes. Kind of data set: Half life in human liver microsomes in presence of recombinant CYP2D6.
Data set [8] concerns Caco-2. The data set can be described thus: Apparent permeability from apical to basolateral side of human Caco-2 cells.
The next data set has as its system Plasma. Kind of data set: Protein binding in dog plasma.
Data set [9] relates to Liver microsomes. Kind of data set: Half life in human liver microsomes in presence of recombinant CYP3A4.
Data set [10] is described as follows: Binding affinity to L-type calcium channel verapamil binding site.
In data set [11] the test system is Liver microsomes. Kind of data set: Metabolic stability in human liver microsomes in presence of recombinant CYP3A4.
The nature of data set [12]: Binding affinity to sodium channel site 2.
Data set [13] can be described thus: Half life in dog liver microsomes.
Data set [14] can be described thus: Binding affinity to L-type calcium channel DHP binding site.
A further data set deals with Hepatocyte. Kind of data set: Half life in human hepatocytes. The following applies: Liver.
For data set [15], the system named is Liver microsomes. Kind of data set: Half life in human liver microsomes in presence of recombinant CYP2C19.
The test system of data set [16] is Liver microsomes. Kind of data set: Metabolic stability in human liver microsomes in presence of recombinant CYP2D6.
The test system of data set [17] is Canis familiaris. The data set can be described thus: Elimination half life in dog at 0.0075 mg/kg, iv. As to conditions: in vivo.
Data set [18] has as its system Canis familiaris. Kind of data set: Volume of distribution in dog at 0.0075 mg/kg, iv. As to conditions: in vivo.
For data set [19], the target named is 5-hydroxytryptamine receptor 7 (Homo sapiens, UniProt P34969). Kind of data set: Binding affinity to 5HT7 receptor.
A short description of data set [20]: Binding affinity to sigma receptor.
Data set [21] in a line: Lipophilicity, log D at pH 7.4. As to conditions: buffer.

Consider `COc1ccccc1CC(c1cccc(F)c1)N1CCNCC1` (centres undefined), for which the t1/2 in the data set on Liver microsomes [1] was above 2 h. The values for the IC50 in [2] and in data set [3] were above 22.5 µM and 4.54 µM, respectively.

The compound `Fc1ccccc1C(Cc1ccccc1OC(F)F)N1CCNCC1` (centres undefined) came in with a t1/2 in the data set on Liver microsomes [1] of 1.52 h. In data set [3], this compound had a half-maximal inhibitory concentration (IC50) of 3.37 µM.

On to `COc1c(F)cccc1CC(c1ccccc1)N1CCNCC1` (centres undefined), for which the IC50 at Cytochrome P450 2D6 is above 30 µM; in [2], 20.8 µM; in data set [3], 3.81 µM. In the data set on Liver microsomes [1], this compound yielded a t1/2 above 2 h.

On to `Fc1ccccc1C(Cc1ccccc1OC(F)(F)F)N1CCNCC1` (centres undefined), for which the t1/2 with Liver microsomes [1] is > 2 h and 1.82 h. In addition, the IC50 in data set [3] is 3.27 µM and 1.41 µM.

With `CCOc1ccccc1C[C@H](c1ccccc1)N1CCNCC1`, the Stability turned out to be 21% in the data set with Liver microsomes [4], 29% in the data set with Liver microsomes [11] and 44% with Liver microsomes [16]. Moreover, the Papp in the data set with Caco-2 [5] worked out at 36 ×10⁻⁶ cm/s; with Caco-2 [8], 33 ×10⁻⁶ cm/s. Also, in [6], the pKa stood at 4. Besides, the t1/2 came out at 2 min in the data set with Liver microsomes [7]; 0.333 h in the data set with Liver microsomes [9]; 0.0667 h in data set [13]; 1.17 h in the data set with Liver microsomes [1]; 1.33 h in the data set with Hepatocyte; 1 h in the data set on Liver microsomes [15]. Besides, the PPB in the data set on Plasma came to 90%. Moreover, the IC50 was 5.01 µM in data set [10]; 0.45 µM in data set [12]; above 10 µM in data set [14]; 6.95 µM in data set [2]; 0.79 µM in [3].

Regarding `CCCOc1ccccc1CC(c1ccccc1)N1CCNCC1` (centres undefined), in the data set on Liver microsomes [1], the t1/2 came out at 0.767 h. Also, the IC50 in data set [2] was found to be 5.84 µM.

For the compound `COc1ccccc1CC(c1ccccc1F)N1CCNCC1` (centres undefined), the figures for the half-inhibitory concentration (IC50) (against Cytochrome P450 2D6; in [2]; in data set [3]) were 17.7 µM, 40.1 µM and 3.84 µM, respectively. This compound returned a t1/2 in the data set with Liver microsomes [1] above 2 h.

`c1ccc(C(Cc2ccccc2OCC2CC2)N2CCNCC2)cc1` (centres undefined): the t1/2 in the data set with Liver microsomes [1] is 1.4 h.

For the compound `Oc1ccccc1C[C@H](c1ccccc1)N1CCNCC1`, the IC50 is above 30 µM against Cytochrome P450 2D6, above 10 µM in [2] and 11.5 µM in [3].

For the compound `Fc1ccc(C(Cc2ccccc2OC(F)F)N2CCNCC2)cc1` (centres undefined), the t1/2 in the data set on Liver microsomes [1] amounted to 1.53 h. In addition, the results for the concentration for half-maximal inhibition (IC50) in [2] and in [3] were 9.12 µM and 3.66 µM, respectively.

Turning to `Fc1ccc(C(Cc2ccccc2OC(F)(F)F)N2CCNCC2)cc1` (centres undefined), the IC50 on Cytochrome P450 2D6 is 1.4 µM and 3.6 µM; in data set [2] it was 8.05 µM and 9.64 µM and 4.95 µM; in data set [3], 3.14 µM and 2.96 µM and 1.42 µM. In the data set with Plasma, the PPB turned out to be 96.5%. Besides, the t1/2 was 0.283 h in [13]; > 2 h and 1.35 h in the data set with Liver microsomes [1]. In the data set on Canis familiaris [17], this compound displayed a beta t1/2 of 6 h. The compound also came in with a distribution volume (Vd) in the data set with Canis familiaris [18] of 7 L/kg.

In the case of `COc1ccccc1CC(c1ccccc1)N1CCNCC1` (centres undefined), the IC50 was 5.9 µM in [10]; 2.2 µM in data set [12]; above 10 µM in data set [14]; 8.74 µM and 4.47 µM and 5.4 µM in data set [3]. Further, the t1/2 was 0.1 h in data set [13], above 2 h with Liver microsomes [1] and 2.12 h in the data set with Hepatocyte. Moreover, the inhibitory constant (Ki) in data set [19] is 0.84 µM; in data set [20], 0.29 µM. Moreover, the pH-dependent lipophilicity (logD) in data set [21] was 1.

Consider `FC(F)(F)Oc1ccccc1CC(c1ccccc1)N1CCNCC1` (centres undefined), for which the results for the IC50 (on Cytochrome P450 2D6; in [2]; in data set [3]) were 3.6 µM, 10.9 µM and 2.1 µM, respectively. In the data set on Liver microsomes [1], this compound returned a t1/2 of 1.82 h.

For `FC(F)Oc1ccccc1CC(c1ccccc1)N1CCNCC1` (centres undefined), the IC50 is 30 µM and 3 µM and 4.9 µM at Cytochrome P450 2D6; 10.7 µM and 12.7 µM and 15.3 µM in [2]; 4.7 µM and 2.97 µM and 4.89 µM in data set [3]. The same compound yielded a t1/2 in data set [13] of 1.05 h.

Compound `Fc1cccc(C(Cc2ccccc2OC(F)F)N2CCNCC2)c1` (centres undefined) gave a t1/2 in the data set with Liver microsomes [1] of 1.95 h. Further, the concentration for half-maximal inhibition (IC50) in [2] came out at 8.24 µM; in data set [3], 15.2 µM.

In the case of `COc1ccccc1CC(c1ccc(F)cc1)N1CCNCC1` (centres undefined), the IC50 came out at 12.1 µM against Cytochrome P450 2D6, 16 µM in [2] and 4.83 µM in [3]. In the data set with Liver microsomes [1], the t1/2 was above 2 h.

In turn, `Fc1cccc(C(Cc2ccccc2OC(F)(F)F)N2CCNCC2)c1` (centres undefined) returned a t1/2 in the data set on Liver microsomes [1] above 2 h. In addition, the concentration for half-maximal inhibition (IC50) in [3] amounted to 3.99 µM.

For `CC(C)Oc1ccccc1CC(c1ccccc1)N1CCNCC1` (centres undefined), the t1/2 with Liver microsomes [1] came to 0.767 h. In addition, the IC50 in data set [2] came to 6.37 µM.
